These results are taken from patent US20140121237A1, “Methods for Inhibiting Virus Replication” (priority 2011, published 2014).

Amino acid sequences for entries named in this document (tags omitted). A change or cut given only in a name is not applied to a line headed by its entry.
UniProt P30305: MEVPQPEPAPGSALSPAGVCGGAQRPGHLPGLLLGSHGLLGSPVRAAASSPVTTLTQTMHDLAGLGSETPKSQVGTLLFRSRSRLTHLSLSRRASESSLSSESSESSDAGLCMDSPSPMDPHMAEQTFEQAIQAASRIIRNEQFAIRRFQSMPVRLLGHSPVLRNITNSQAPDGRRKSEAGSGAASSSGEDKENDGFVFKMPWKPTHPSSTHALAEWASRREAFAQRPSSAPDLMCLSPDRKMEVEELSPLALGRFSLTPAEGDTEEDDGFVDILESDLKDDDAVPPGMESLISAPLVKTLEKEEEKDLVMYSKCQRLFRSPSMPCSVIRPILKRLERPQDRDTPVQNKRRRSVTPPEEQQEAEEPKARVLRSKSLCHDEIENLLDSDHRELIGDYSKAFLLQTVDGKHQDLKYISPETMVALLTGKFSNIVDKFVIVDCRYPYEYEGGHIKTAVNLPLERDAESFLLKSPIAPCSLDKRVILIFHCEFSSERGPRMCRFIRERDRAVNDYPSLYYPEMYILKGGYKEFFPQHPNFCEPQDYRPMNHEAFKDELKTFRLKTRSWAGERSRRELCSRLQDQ

This assay deals with CDC25B (Homo sapiens, UniProt P30305). In words: Western blot of CDC25B protein in BEAS2B cells (Example 1). Particulars: anti-CDC25B antibody. In general terms: In western blotting, separated proteins are transferred to a membrane and probed.

For the substance “2,3-bis-[2-hydroxyethylsulfanyl]-[1,4]naphthoquinone”, the “amount of CDC25B protein (65 KDa band)” value was “decreased the amount of CDC25B protein”.
